Measurements taken from publication PMC3366976, “Tuning the Drug Efflux Activity of an ABC Transporter in vivo by in vitro Selected DARPin Binders” (PLoS ONE, 2012).

System: Nc1ncnc2c1ncn2[C@@H]1O[C@H](COP(=O)(O)OP(=O)(O)OP(=O)(O)O)[C@@H](O)[C@H]1O
Test: purified protein
Details: non-binding control DARPin E3_5 present (2.5 µM), 10 mM MgSO4, 50 mM K-HEPES pH 7.0, 30°C, Hill coefficient fitted

**Q.** With “LmrCD (Lactococcus cremoris subsp. cremoris MG1363; A2RI37:C179R)” as the substance, how does the K0.5 read?
**A.** 0.73 ± 0.09 mM
